# Data from PubChem BioAssay AID2557 (NMMLSC, 2010).
# Chains of the proteins cited; added tags and fusions are not shown.
# UniProt P13612, whole entry, looked up: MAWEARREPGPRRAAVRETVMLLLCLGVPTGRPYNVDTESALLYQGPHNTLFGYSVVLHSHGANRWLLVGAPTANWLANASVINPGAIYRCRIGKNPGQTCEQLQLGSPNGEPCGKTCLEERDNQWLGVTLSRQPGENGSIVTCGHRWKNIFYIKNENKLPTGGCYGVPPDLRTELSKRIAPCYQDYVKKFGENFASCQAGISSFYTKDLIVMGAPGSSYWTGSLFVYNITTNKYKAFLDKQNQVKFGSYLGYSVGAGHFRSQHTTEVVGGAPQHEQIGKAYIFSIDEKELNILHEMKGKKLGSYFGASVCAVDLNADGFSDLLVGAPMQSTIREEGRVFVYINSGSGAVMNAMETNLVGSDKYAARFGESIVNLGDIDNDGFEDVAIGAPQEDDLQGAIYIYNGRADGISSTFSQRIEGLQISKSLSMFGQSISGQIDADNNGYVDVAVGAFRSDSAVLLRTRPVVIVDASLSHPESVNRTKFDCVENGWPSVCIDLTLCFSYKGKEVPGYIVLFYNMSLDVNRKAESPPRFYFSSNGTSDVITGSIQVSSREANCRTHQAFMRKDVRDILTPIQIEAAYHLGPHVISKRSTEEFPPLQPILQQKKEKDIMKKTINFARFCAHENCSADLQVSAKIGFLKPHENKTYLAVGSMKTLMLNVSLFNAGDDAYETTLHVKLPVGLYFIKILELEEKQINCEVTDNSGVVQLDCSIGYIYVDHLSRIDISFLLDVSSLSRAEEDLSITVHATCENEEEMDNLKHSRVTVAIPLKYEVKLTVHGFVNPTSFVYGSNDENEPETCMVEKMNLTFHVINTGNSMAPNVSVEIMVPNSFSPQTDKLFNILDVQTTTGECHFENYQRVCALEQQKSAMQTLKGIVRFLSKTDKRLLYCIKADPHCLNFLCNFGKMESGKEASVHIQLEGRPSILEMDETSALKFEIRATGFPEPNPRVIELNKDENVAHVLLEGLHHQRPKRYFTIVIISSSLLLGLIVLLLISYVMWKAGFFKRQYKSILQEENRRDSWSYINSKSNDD
# The entries are a selection whose mix differs from that of the whole data set. The source made the active and inactive calls. No stated cut-off is given here; in the data, active means inhibition above about 50%; inactive means the rest.
# Target: Integrin alpha-4 (Homo sapiens) (UniProt P13612)
# Test: VLA-4 integrin binding inhibitors – MLPCN library, flow cytometry, VLA-4 expressing cells, VLA-4 allosteric modulator project, primary screen (AID 2557)
# Settings: ligand binding flow cytometry, stronger effect = higher value, about 7 µM as worked out from the volumes in the protocol
row,SMILES,inhibition
1,O=[As](O)(c1ccccc1)c1ccc(O)cc1,inactive: -21.4%
2,C(Cc1nn[nH]n1)Cc1nn[nH]n1,inactive: 11.4%
3,Nc1ccc([As](=O)(O)c2ccc([N+](=O)[O-])cc2)cc1,inactive: 11.5%
4,O=C(OC1CN2CCC1CC2)c1cccc(Cl)c1 (stereo not given),inactive: -3.54%
5,CN(C)C1(CNC(=O)c2ccc(Cl)c(S(N)(=O)=O)c2)CCCCC1,inactive: -30.3%
6,O=P(Nc1ccccn1)(c1ccc(Br)cc1)c1ccc(Br)cc1,inactive: 1.25%
7,C[C@H]1OP(=O)(Oc2ccccc2)[C@H](O)[C@H](O)[C@H]1N=[N+]=[N-] (stereo not given in full),inactive: -8.14%
8,O=P(Nc1nc2ccccc2s1)(c1ccccc1)c1ccccc1,inactive: 23.7%
9,O=P(Nc1nccs1)(c1ccccc1)c1ccccc1,inactive: -7.88%
10,CC(C)C(=O)NC(Sc1ccccc1)C(Cl)(Cl)Cl (stereo not given),inactive: 31.7%
11,c1nnnn1CCn1cnnn1,inactive: 15%
12,COc1ccccc1CNC(=O)COC(=O)C(O)(c1ccccc1)c1ccccc1,inactive: 0.04%
13,CC1(CBr)Cn2c(nc3ccccc3c2=O)S1 (stereo not given),inactive: 8.14%
14,O=[As](O)(c1ccccc1Br)c1ccccc1Br,inactive: 10.8%
15,CN(C(=O)Cc1ccc(Cl)c(Cl)c1)[C@@H]1CCCC[C@H]1N1CCCC1,inactive: -7.33%
16,CC(C)/C=N\N=C(\N)N[N+](=O)[O-],inactive: 14.5%
17,CCOP(=O)(Nc1ccc(C)cn1)OCC,inactive: -17.2%
18,CN(CCCl)Cc1cc(Cl)c(NC2=NCCN2)c(Cl)c1,inactive: 25.5%
19,CCOP(=O)(NC(=NC(C)c1ccccc1)NC(C)c1ccccc1)OCC (stereo not given),inactive: -10.4%
20,CCC1=CC2Cc3nc4ccc(Cl)cc4c(N)c3C(C1)C2 (stereo not given),inactive: -0.31%
21,O=P1(Nc2ccccn2)COc2ccccc2OC1,inactive: 0.71%
22,CC(C)(C)C(=O)NC(Sc1ncccn1)C(Cl)(Cl)Cl (stereo not given),inactive: 4.53%

row,SMILES,inhibition
1,Clc1n[nH]nc1-c1nn[nH][15n]1,inactive: 3.61%
2,O=P1(Nc2ncccn2)COc2ccccc2OC1,inactive: -6.37%
3,O=[As](O)(c1cccs1)c1cccs1,inactive: 1.73%
4,Cc1ccc(OCC(=O)OC2CN3CCC2CC3)cc1 (stereo not given),inactive: 11.6%
5,NS(=O)(=O)c1cccc(NC(=O)COC(=O)C(O)(c2ccccc2)c2ccccc2)c1,inactive: -1.02%
6,O=P1(Nc2ccc(Br)cn2)COc2ccccc2OC1,inactive: 24.7%
7,Nc1cccc([As](=O)(O)c2ccccc2)c1,inactive: -10.5%
8,Cc1ccc(C(=O)OC2CN3CCC2CC3)cc1 (stereo not given),inactive: 0%
9,CC1CCC(C(C)C)C(OP(=O)(Nc2ccccn2)c2ccccc2)C1 (stereo not given),inactive: 0.82%
10,Cc1nn(-c2ccccc2)c2c1P(=O)(N1CCOCC1)N(C)C(c1ccccc1)=N2 (stereo not given),inactive: 10.1%
11,O=C(/C=C/c1ccccc1)OC1CN2CCC1CC2 (stereo not given),inactive: -2.95%
12,CN(C)C1(CNC(=O)c2ccc(S(C)(=O)=O)cc2)CCCCC1,inactive: -0.09%
13,NC(=O)Nc1ccc([As](=O)(O)O)cc1,inactive: 1.59%
14,CN(C(=O)Cc1ccc(Cl)c(Cl)c1)[C@H]1CC[C@@]2(CCCO2)C[C@@H]1N1CCCC1,inactive: 26%
15,O=[N+]([O-])c1ccc2c(c1)nnn2O,inactive: -1.52%
16,CN(C)C(=O)c1cc([N+](=O)[O-])cc2c1-c1c(cc([N+](=O)[O-])cc1[N+](=O)[O-])C2=O,inactive: 22.3%
17,CN(C(=O)Cc1ccccc1)[C@@H]1CC[C@]2(CCCO2)C[C@H]1N1CCCC1,inactive: 18.8%
18,CCOP1(=S)c2c(C)nn(CCC#N)c2N=C(c2ccc(F)cc2)N1C (stereo not given),inactive: 3.44%
19,N#CCCN(C(=O)COC(=O)C(O)(c1ccccc1)c1ccccc1)c1ccc(F)cc1,inactive: 4.28%
20,CS(=O)(=O)c1cc([N+](=O)[O-])c2no[n+]([O-])c2c1,inactive: -1.69%
21,O=P(Nc1nccs1)(Oc1ccccc1)Oc1ccccc1,inactive: 7.69%
22,O=P(Nc1nccs1)(c1ccccc1)c1nc2ccccc2s1 (stereo not given),inactive: 3.31%

row,SMILES,inhibition
1,CCOP1(=S)c2c(C)nn(CCC#N)c2N=C(c2ccccc2F)N1C (stereo not given),inactive: 3.65%
2,O=C(O)COc1ccc([As](=O)(O)O)cc1[N+](=O)[O-],inactive: 6.28%
3,Nc1ccccc1[As](=O)(O)c1ccccc1,inactive: -17.7%
4,CCCOP(=S)(Nc1nc(N)cc(=O)[nH]1)OCCC,inactive: -11.6%
5,Nc1cccc2c([As](=O)(O)O)cccc12,inactive: -12.6%
6,Cc1ccc(NCCc2c([N+](=O)[O-])cc([N+](=O)[O-])cc2[N+](=O)[O-])cc1,inactive: 0%
7,CCOP(=O)(Nc1cccc2ccccc12)OCC,inactive: 0.3%
8,COc1cc(C2NCCC3(OCCO3)C2(C)C)cc(OC)c1OC (stereo not given),inactive: 3.04%
9,CS(=O)(=O)c1ccc(Cl)c(NC(=O)COC(=O)C(O)(c2ccccc2)c2ccccc2)c1,inactive: -1.87%
10,O=[As](O)(O)c1cccnc1,inactive: -2.16%
11,COc1cc(C(=O)NCC2(N3CCOCC3)CCCCC2)cc(Cl)c1OC(C)C,inactive: 5.01%
12,O=C(OC1CN2CCC1CC2)c1ccc(Cl)cc1 (stereo not given),inactive: 3.36%
13,Cc1cccc(OCC(=O)OC2CN3CCC2CC3)c1 (stereo not given),inactive: -1.37%
14,O=[As](O)(c1cccc(O)c1)c1cccc(O)c1,inactive: -3.86%
15,COc1ccc(N/C(=N/P(=O)(N2CCOCC2)N2CCOCC2)N2CCOCC2)cc1,inactive: 3.97%
16,Cc1cc(=O)[nH]c(N[N+](=O)[O-])n1,inactive: 6.78%
17,O=C(OC1CN2CCC1CC2)C12CC3CC(CC(C3)C1)C2 (stereo not given),inactive: -7.67%
18,Cc1c2c(nc3ccccc13)SC(C(Cl)Cl)C2 (stereo not given),inactive: 5.74%
19,COc1cc(I)ccc1[As](=O)(O)O,inactive: 6.82%
20,COc1ccc2nc(NP(=O)(c3ccccc3)c3ccccc3)sc2c1,inactive: -0.67%
21,CC(C)c1ccc(OP(=O)(Nc2ccccn2)Oc2ccccc2F)cc1 (stereo not given),inactive: 17.8%
